This data set in a line: Equilibrium solubility, shake flask method, HPLC of KTZ. The conditions noted are these: for Equilibrium solubility, concentration of KTZ: 37.0 °C, 48 h, mean ± SD, triplicate. The class given is physicochemical. On the procedure: The solutions were stirred at 160 strokes min^−1 with a magnetic bar at 37 °C for 48 h to reach equilibrium. The suspension was filtered through a 0.22 μm nylon filter membrane, diluted appropriately, and analyzed by subsequent high-performance liquid chromatography (HPLC) analysis. […] An Agilent Eclipse XDB−C18 (250 mm × 4.6 mm, 5 μm) column was used throughout the process of elution with the column temperature set to 30 °C. The mobile phase, consisting of methanol and water (80/20, v/v), was run at 1.0 mL min^−1 with a detection wavelength of 254 nm. The injection sample volume was 10 μL. The measurements were performed based on an external standard method. All the solubility experiments were performed in triplicate and the results are expressed as the mean value ± standard deviation (SD). Residual solids were collected after the equilibrium solubility experiment and characterized by PXRD for solid-form stability examinations.

The values that follow come from PMC10610424, “Enhancing Solubility and Dissolution Rate of Antifungal Drug Ketoconazole through Crystal Engineering” (Pharmaceuticals, 2023).

SMILES strings stand for the structures.

Take `CC(=O)N1CCN(c2ccc(OCC3COC(Cn4ccnc4)(c4ccc(Cl)cc4Cl)O3)cc2)CC1.COc1cc(C(=O)O)ccc1O` (racemic) [KTZ−VNA]: the “Solubility of ketoconazole in distilled water” value (distilled water (abstract)) was 321.6 µg/mL. For the same compound, the “Equilibrium solubility, concentration of KTZ” value amounted to 365.44 ± 51.10 µg/mL (pH 4.5 acetate buffer) and 321.57 ± 10.03 µg/mL (ultrapure water).
